The text below walks through data of PubChem BioAssay AID1663 (Broad Institute, 2009).

The list shows a part of the results, in another mix than the full data. Some of these compounds have results that are not shown, active ones among them. Calls of active or inactive are those of the source.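 How the source made its calls: active means mean replicate score, as percent of positive control, at or above 50; inconclusive means mean below 50 but at least one replicate at or above 50; inactive means mean and every replicate below 50.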

The nature of this assay: blockers of SFLLRN-triggered platelet ATP release – cell-based, MLPCN, human platelets, primary screen (AID 1663). The following applies: human platelet-rich plasma, SFLLRN dense granule ATP release, luminescence; active compounds read high;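 compounds screened at 7.5 µM in platelet-rich plasma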.
Usually inhibition stands for the change of the read-out against control, counted positive when it falls. In the case of `COc1cc(C(=O)NCC2(N(C)C)CCCCC2)c([N+](=O)[O-])cc1OC`, the inhibition was inactive: -5.62%. The same measure for `CN(C)C1(CNC(=O)c2ccc(Br)cc2)CCCCC1`: inactive: 13.4%; for `O=C(NCC1(N2CCCCC2)CCCCC1)c1cccc(Cl)c1`: inactive: -1.58%; for `COc1cccc(C(=O)NCC2(N3CCCCC3)CCCCC2)c1`: inactive: 0.482%.

In the case of `COc1ccc(Cl)cc1C(=O)NCC1(N(C)C)CCCCC1`, the inhibition is inactive: -1.75%. Next, `O=C(OC1CN2CCC1CC2)C(CO)(c1ccccc1)c1ccccc1` (centres undefined): inactive: 4.7%; `CN(C)c1cccc(C(=O)NCC2(N(C)C)CCCCC2)c1`: inactive: 5.84%. The same measure for `CC(C)Oc1ccc(C(=O)NCC2(N(C)C)CCCCC2)cc1`: inactive: 7.02%; for `COc1ccc(Br)c(C(=O)NCC2(N3CCCCC3)CCCCC2)c1`: inactive: -1.52%; for `CN1[C@@H]2CC[C@H]1CC(OC(=O)C(O)(c1ccccc1)c1ccccc1)C2` (some centres undefined): inactive: -0.518%.

Regarding `O=C(NCC1(N2CCCCC2)CCCCC1)c1cc([N+](=O)[O-])ccc1Cl`, the inhibition was inactive: -2.17%. The same measure for `Cc1ccc(C(=O)NCC2(N3CCCCC3)CCCCC2)cc1`: inactive: 9.03%; for `CC(C)N1C(=O)CC2(CCN(CCOC(=O)C(O)(c3ccccc3)c3ccccc3)CC2)C1=O`: inactive: -4.06%. The same measure for `CCN(CC)CC(C)C(C)OC(=O)C(O)(c1ccccc1)c1ccccc1` (centres undefined): inactive: -17.4%; for `COc1cc(SC)ccc1C(=O)NCC1(N(C)C)CCCCC1`: inactive: 1.7%. The same measure for `Cc1ccccc1C(=O)NCC1(N2CCCCC2)CCCCC1`: inactive: -5.66%; for `CN(C)c1ccc(C(=O)NCC2(N(C)C)CCCCC2)cc1`: inactive: -1.93%; for `CN(C)C1CCCC1OC(=O)C(O)(c1ccccc1)c1ccccc1` (centres undefined): inactive: 8.81%. Turning to `CCN1CCCC(OC(=O)C2(O)c3ccccc3C=Cc3ccccc32)C1` (centres undefined), the inhibition is inactive: -13.5%. In the case of `Cc1cc(C(=O)NCC2(N3CCCCC3)CCCCC2)ccc1[N+](=O)[O-]`, the inhibition was inactive: 5.31%.

`O=C(NCC1(N2CCCCC2)CCCCC1)c1cccc(Br)c1`: the inhibition was inactive: -7.3%.

On to `COc1ccc(C(=O)NCC2(N(C)C)CCCCC2)cc1`, for which the inhibition is inactive: 3.83%. Regarding `C=CCN1CCN(CCOC(=O)C(O)(c2ccccc2)c2ccccc2)CC1`, the inhibition was inactive: -0.989%. Regarding `O=C(NCC1(N2CCCCC2)CCCCC1)c1cc(F)c(F)cc1Cl`, the inhibition was inactive: 15.8%.
